Measured values: US20020035061A1, “COMPOSITIONS AND METHODS FOR TREATING INFECTIONS USING CATIONIC PEPTIDES ALONE OR IN COMBINATION WITH ANTIBIOTICS” (priority 1996, published 2002)

Assays:
[1] = Solubility in broth (visual inspection); assay type: physicochemical; conditions: visual inspection
Procedure: Solubility of the peptide in formulation buffer is an additional parameter that may be examined. Several different assays may be used, such as appearance in buffer. Briefly, peptide is suspended in solution, such as broth or formulation buffer. The appearance is evaluated according to a scale that ranges from (a) clear, no precipitate, (b) light, diffuse precipitate, to (c) cloudy, heavy precipitate. Finer gradations may be used. In general, less precipitate is more desirable. However, some precipitate may be acceptable.
The solubility of peptide analogues is assessed in calcium and magnesium supplemented Mueller Hinton broth by visual inspection. The procedure employed is that used for the broth dilution assay except that bacteria are not added to the wells. The appearance of the solution in each well is evaluated according to the scale: (a) clear, no precipitate, (b) light diffuse precipitate and (c) cloudy, heavy precipitate.

[2] = Circular dichroism spectroscopy; assay type: physicochemical
[3] = Single dose toxicity, intraperitoneal injection, formulations; assay type: in vivo, outbred ICR mice
Procedure: The single dose toxicity of a cationic peptide and antibiotic agent combination is examined in outbred ICR mice. Intraperitoneal injection of the combination in isotonic saline is carried out at increasing dose levels. The survival of the animals is monitored for 7 days. The number of animals surviving at each dose level is used to determine the maximum tolerated dose (MTD). In addition, the MTD can be determined after administration of the peptide and agent by different routes, at different time points, and in different formulations.
The single dose toxicity of MBI 10CN and MBI 11CN is examined in outbred ICR mice (Table 32).
The single dose toxicity of MBI 10CN and MBI 11CN in different formulations is also examined in outbred ICR mice (Table 36). Intraperitoneal injection (groups of 2 mice) of MBI 10CN in formulation D show no toxicity up to 29 mg/kg and under the same conditions MBI 11CN show no toxicity up to 40 mg/kg.

[4] = Single and multiple dose toxicity, intravenous injection, formulations; assay type: in vivo, outbred ICR mice
[5] = tested on: mammalian red blood cells
bacterial isolates = conditions: for Teicoplanin + MBI 26: in combination with MBI 26
[6] = tested on: microorganisms with acquired resistance
[7] = tested on: inherently resistant microorganisms; conditions: for Teicoplanin MIC + MBI 26: in combination with MBI 26
[8] = CD spectrum, phosphate buffer and 40% (v/v) trifluoroethanol

ILPWKWPWWPWRR [MBI 10CN]
solubility in calcium and magnesium supplemented Mueller Hinton broth [1]: less soluble than MBI 11CN | min λ, Phosphate buffer ([2]; CD spectrum, 10 mM sodium phosphate buffer, pH 7.2): 201 nm | max λ, TFE [2, 8]: ˜219 nm | min λ, TFE [2, 8]: 203 nm | Conformation in buffer ([2]; CD, 10 mM sodium phosphate buffer, pH 7.2): Unordered | Conformation in TFE ([2]; CD, phosphate buffer and 40% (v/v) trifluoroethanol): Unordered | MTD ([3]; Intraperitoneal injection, single dose, outbred ICR mice (Table 32)): >29 mg/kg | MTD ([3]; ip, formulation D, ICR mice): 29 mg/kg and >29 mg/kg | dose showing no toxicity ([3]; ip, formulation D, groups of 2 mice): up to 29 mg/kg | MTD ([4]; Intravenous injection, single dose, outbred ICR mice (Table 32)): 5.6 mg/kg | MTD ([4]; iv, formulation D): 5.6 mg/kg | toxicity ([4]; iv, formulation D, 11 mg/kg): 40% | toxicity ([4]; iv, formulation D, 22 mg/kg): 100% | MTD ([4]; iv, formulation D, ICR mice): 5.6 mg/kg | lysis [5]: 3.9% | red blood cell lysis [5]: substantial lysis | % Lysis ([5]; […], 37° C., 1 hour): 4.3%

Gentamicin
Gentamicin MIC Alone (bacterial isolates; A. baumannii ABI001): 64 µg/mL | Gentamicin MIC Alone (bacterial isolates; E. coli ECO006): 64 µg/mL | Gentamicin MIC Alone (bacterial isolates; K. pneumonia KP020): 64 µg/mL | Gentamicin MIC Alone (bacterial isolates; S. aureus SA025 MRSA): 64 µg/mL | Gentamicin MIC Alone (bacterial isolates; S. epidermidis SE074): 64 µg/mL | Gentamicin MIC Alone (bacterial isolates; S. maltophilia SMA017): 64 µg/mL | Gentamicin MIC Alone (bacterial isolates; S. maltophilia SMA021): 64 µg/mL | Gentamicin MIC Alone ([6]; A. baumannii ABI001): 64 µg/mL | Gentamicin MIC Alone ([6]; S. maltophilia SMA017): 64 µg/mL | Gentamicin MIC Alone ([6]; S. maltophilia SMA019): 64 µg/mL | Gentamicin MIC Alone ([6]; S. maltophilia SMA020): 64 µg/mL | Gentamicin MIC Alone ([6]; S. maltophilia SMA021): 64 µg/mL

Teicoplanin
Teicoplanin Alone (bacterial isolates; E. faecalis 97040 VanB): 0.5 µg/mL | Teicoplanin + MBI 26 (bacterial isolates; E. faecalis 97040 VanB): 0.25 µg/mL | Teicoplanin Alone (bacterial isolates; E. faecalis 97041 VanB): 1 µg/mL | Teicoplanin + MBI 26 (bacterial isolates; E. faecalis 97041 VanB): 0.25 µg/mL | Teicoplanin Alone (bacterial isolates; E. faecalis 97042 VanB): 1 µg/mL | Teicoplanin + MBI 26 (bacterial isolates; E. faecalis 97042 VanB): 0.25 µg/mL | Teicoplanin Alone (bacterial isolates; E. faecalis 97043 VanB): 0.5 µg/mL | Teicoplanin + MBI 26 (bacterial isolates; E. faecalis 97043 VanB): 0.25 µg/mL | Teicoplanin Alone (bacterial isolates; E. faecium 97001 VanB): 0.5 µg/mL | Teicoplanin + MBI 26 (bacterial isolates; E. faecium 97001 VanB): 0.25 µg/mL | Teicoplanin Alone (bacterial isolates; E. faecium 97002 VanB): 0.5 µg/mL | Teicoplanin + MBI 26 (bacterial isolates; E. faecium 97002 VanB): 0.25 µg/mL | Teicoplanin Alone (bacterial isolates; E. faecium 97003 VanB): 0.5 µg/mL | Teicoplanin + MBI 26 (bacterial isolates; E. faecium 97003 VanB): 0.25 µg/mL | Teicoplanin Alone (bacterial isolates; E. faecium 97005 VanB): 1 µg/mL | Teicoplanin + MBI 26 (bacterial isolates; E. faecium 97005 VanB): 0.25 µg/mL | Teicoplanin Alone (bacterial isolates; E. faecium 97006 VanB): 0.5 µg/mL | Teicoplanin + MBI 26 (bacterial isolates; E. faecium 97006 VanB): 0.5 µg/mL | Teicoplanin Alone (bacterial isolates; E. faecium 97007 VanB): 0.5 µg/mL | Teicoplanin + MBI 26 (bacterial isolates; E. faecium 97007 VanB): 0.25 µg/mL | Teicoplanin Alone (bacterial isolates; E. faecium 97008 VanB): 0.5 µg/mL | Teicoplanin + MBI 26 (bacterial isolates; E. faecium 97008 VanB): 0.25 µg/mL | Teicoplanin Alone (bacterial isolates; E. faecium 97009 VanB): 0.5 µg/mL | Teicoplanin + MBI 26 (bacterial isolates; E. faecium 97009 VanB): 0.25 µg/mL | Teicoplanin Alone (bacterial isolates; E. faecium 97010 VanB): 0.5 µg/mL | Teicoplanin + MBI 26 (bacterial isolates; E. faecium 97010 VanB): 0.25 µg/mL | Teicoplanin Alone (bacterial isolates; E. faecium 97011 VanB): 0.5 µg/mL | Teicoplanin + MBI 26 (bacterial isolates; E. faecium 97011 VanB): 0.25 µg/mL | Teicoplanin Alone (bacterial isolates; E. faecium 97012 VanB): 8 µg/mL | Teicoplanin + MBI 26 (bacterial isolates; E. faecium 97012 VanB): 0.25 µg/mL | Teicoplanin Alone (bacterial isolates; E. faecium 97013 VanB): 8 µg/mL | Teicoplanin + MBI 26 (bacterial isolates; E. faecium 97013 VanB): 0.25 µg/mL | Teicoplanin Alone (bacterial isolates; E. faecium 97014 VanB): 8 µg/mL | Teicoplanin + MBI 26 (bacterial isolates; E. faecium 97014 VanB): 0.25 µg/mL | Teicoplanin Alone (bacterial isolates; E. faecium 97015 VanB): 0.5 µg/mL | Teicoplanin + MBI 26 (bacterial isolates; E. faecium 97015 VanB): 0.25 µg/mL | Teicoplanin Alone (bacterial isolates; E. faecium 97016 VanB): 0.5 µg/mL | Teicoplanin + MBI 26 (bacterial isolates; E. faecium 97016 VanB): 0.25 µg/mL | Teicoplanin MIC Alone ([7]; E. casseliflavus VanC strains): 0.5 µg/mL | Teicoplanin MIC + MBI 26 ([7]; E. casseliflavus VanC strains): 0.25 µg/mL | Teicoplanin MIC + MBI 26 ([7]; E. gallinarum VanC strains): 0.25 µg/mL

Values joined by “and” are separate entries in the source; they are usually repeats but may differ in a detail not shown here. Equal entries are not always repeated. Where two headings read alike, the source gives them in different places.
